{
  "sequences": {"note": "Amino acid sequences for entries named in this document (tags omitted). Residues count along the entry.", "UniProt P22303, 32-614, species assumed": "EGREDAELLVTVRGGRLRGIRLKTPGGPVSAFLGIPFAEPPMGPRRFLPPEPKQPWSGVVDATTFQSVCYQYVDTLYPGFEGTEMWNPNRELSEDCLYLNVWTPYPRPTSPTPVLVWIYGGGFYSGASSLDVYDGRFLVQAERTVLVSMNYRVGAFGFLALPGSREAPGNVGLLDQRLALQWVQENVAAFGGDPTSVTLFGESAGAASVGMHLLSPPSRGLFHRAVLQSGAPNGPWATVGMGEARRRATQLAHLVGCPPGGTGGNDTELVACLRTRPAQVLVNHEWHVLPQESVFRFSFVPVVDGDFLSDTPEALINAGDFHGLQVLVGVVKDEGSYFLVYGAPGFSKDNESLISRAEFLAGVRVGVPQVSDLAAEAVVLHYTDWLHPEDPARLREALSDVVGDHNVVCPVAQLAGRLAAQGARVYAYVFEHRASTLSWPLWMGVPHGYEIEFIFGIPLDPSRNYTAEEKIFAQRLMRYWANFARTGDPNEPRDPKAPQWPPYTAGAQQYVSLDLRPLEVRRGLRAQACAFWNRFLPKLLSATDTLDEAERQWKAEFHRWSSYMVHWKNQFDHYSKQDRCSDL"},
  "source": "paper PMC8399180",
  "about": "“Bioactive Polyketide and Diketopiperazine Derivatives from the Mangrove-Sediment-Derived Fungus Aspergillus sp. SCSIO41407” (Molecules, 2021)",
  "target": "acetylcholinesterase (AChE) (Homo sapiens, UniProt P22303)",
  "assay": "AChE inhibitory activity (modified Ellman method)",
  "format": "biochemical",
  "description": "AChE inhibitory activity was evaluated in vitro according to the modified Ellman method. Briefly, 0.1 U/mL AChE solution was prepared by dissolving in phosphate buffer (pH 8.0). The test sample and enzyme buffer were mixed in 96-well plates and incubated for 20 min at 30 °C. Then, 5,5′-dithiobis (2-nitrobenzoic acid) and acetylthiocholine iodide were added, and the enzyme reaction was allowed to proceed for 30 min at 30 °C. AChE activity was determined by measuring the degradation of acetylthiocholine iodide to thiocholine and acetic acid at 405 nm using a microplate reader.",
  "note": "pIC50: −log10 of the molar value.",
  "data": [
    {"compound": "CCCCCCCCCCC[C@@H](C[C@@H]1OC(=O)[C@H]1CCCCCC)OC(=O)[C@H](CC(C)C)NC=O", "note": "[orlistat, reference compound]", "values": [
      {"measurement": "pIC50", "value": 6.48}
    ]}
  ]
}
